This is an account of results in ChEMBL document CHEMBL5365409, “Novel series of tunable µOR modulators with enhanced brain penetration for the treatment of opioid use disorder, pain and neuropsychiatric indications” (Bioorg Med Chem Lett, 2023).

Amino acid sequences for entries named in this document (tags omitted).
UniProt P35372, whole entry: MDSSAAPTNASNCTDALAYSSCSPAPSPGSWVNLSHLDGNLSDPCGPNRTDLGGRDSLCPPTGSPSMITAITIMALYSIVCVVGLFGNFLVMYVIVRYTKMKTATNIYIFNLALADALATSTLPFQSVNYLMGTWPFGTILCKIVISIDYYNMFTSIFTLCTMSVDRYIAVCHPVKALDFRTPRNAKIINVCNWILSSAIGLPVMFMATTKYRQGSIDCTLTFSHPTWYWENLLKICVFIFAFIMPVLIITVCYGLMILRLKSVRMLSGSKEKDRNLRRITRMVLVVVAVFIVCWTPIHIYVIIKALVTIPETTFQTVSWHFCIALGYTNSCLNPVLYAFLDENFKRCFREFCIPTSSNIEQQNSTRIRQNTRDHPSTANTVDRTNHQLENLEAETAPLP

In this assay the target is Mu-type opioid receptor (Homo sapiens, UniProt P35372). Put plainly: Agonist activity at human mu opioid receptor stably transfected in CHO cells by cAMP assay. It is filed as functional, cell-based.
What is called EC50 is the concentration that produces a half-maximal response. A high value points to a need for much substance. In turn, `C[C@H](CC(=O)NC[C@H](Cc1ccc(O)cc1)N(C)C)c1ccccc1` displayed a concentration for a half-maximal effect (EC50) of 29 nM.
Molecule `C[C@@H](CC(=O)NC[C@H](Cc1c(F)cc(O)cc1F)N(C)C)c1ccccc1` came in with an EC50 of 14.5 nM.
The molecule `C[C@@H](CC(=O)NC[C@H](Cc1ccc(O)cc1)N(C)C)c1ccccc1` registered a half-maximal effective concentration (EC50) of 7.5 nM.
